## Antibody variant affinities, Ab-14 light chain, assay 1

The measurements come from Engelhart et al. 2022 (doi:10.1038/s41597-022-01779-4) through the FLAb antibody collection.

Binding partner: SARS-CoV-2 spike HR2 peptide, sequence PDVDLGDISGINAS.

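The parent was found by panning a naive human phage display library on the peptide. In library AAYL50, one, two or three CDR residues were substituted; doubles and triples were drawn at random. AlphaSeq pools MATa yeast showing the antibodies with MATalpha yeast showing the peptide. Binding brings cells together so that they mate, and sequencing counts the barcode pairs among the diploids. Read counts were normalised to the haploid input and turned into Kd by a linear fit to BCL2-family pairs of known affinity, for each replicate. There are three technical replicates.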

Parent scFv Ab-14: VH joined to VL by a (GGGGS)3 linker. Changes lie in the light chain CDRs alone.
VH: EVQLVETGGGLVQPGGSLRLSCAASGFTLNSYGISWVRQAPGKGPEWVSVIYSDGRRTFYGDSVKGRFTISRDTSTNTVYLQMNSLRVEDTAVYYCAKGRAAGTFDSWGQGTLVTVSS
VL: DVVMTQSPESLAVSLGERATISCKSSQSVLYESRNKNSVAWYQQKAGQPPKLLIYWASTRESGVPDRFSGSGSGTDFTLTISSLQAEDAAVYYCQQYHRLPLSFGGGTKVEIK

The whole VL of each variant is written out. This list gathers variants with a substitution at L100 (VL, numbered from residue 1). The Kd shown is the geometric mean over detected replicates; a lower Kd is a better binder. Where no diploid with the target was found in any replicate, the entry reads "nd": below detection, most likely a poor binder, though not proof of it. Parent in this assay: reference entry 4.4 nM, copy in this library 48 nM. Three control strains display no target. For library AAYL50, 18% of the pairings with them gave a signal, with a median of 15 µM and one signal in twenty below 970 nM, so weak values seen in few replicates may be background. The control count says in how many pairings with the empty strains this scFv gave a signal.

- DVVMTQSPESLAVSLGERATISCKDSQSVLYESRNKNSVAWYQQKAGQPPKLLIYQASTRESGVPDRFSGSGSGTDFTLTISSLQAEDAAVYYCQQYHRRPLSFGGGTKVEIK = 54 µM (1 of 3 replicates; controls 3 of 9)
- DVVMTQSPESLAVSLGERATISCKSSQNVLYESRNKNSVAWYQQKAGQPPKLLIYWASTRESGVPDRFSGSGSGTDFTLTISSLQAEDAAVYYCQQAHREPLSFGGGTKVEIK = 3.7 nM (3 of 3 replicates; controls 1 of 9)
- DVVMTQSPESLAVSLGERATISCKSSQSVLYESRNENSVAWYQQKAGQPPKLLIYWASTRESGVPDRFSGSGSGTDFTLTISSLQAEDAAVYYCQQYHRQPKSFGGGTKVEIK = 11 nM (3 of 3 replicates; controls 1 of 9)
- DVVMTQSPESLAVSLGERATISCKSSQSVLYESRNKNSVAWYQQKAGQPPKLLIYWASTPESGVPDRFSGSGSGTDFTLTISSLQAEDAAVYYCQQYHINPLSFGGGTKVEIK = 87 nM (3 of 3 replicates; controls 4 of 9)
- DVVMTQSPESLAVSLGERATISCKSSQSVLYESVNKNSVAWYQQKAGQPPKLLIYWMSTRESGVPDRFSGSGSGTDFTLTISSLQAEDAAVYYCQQYHRIPLSFGGGTKVEIK = 17 nM (3 of 3 replicates; controls 0 of 9)
- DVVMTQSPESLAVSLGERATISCKRSQSVLYESRNKNSVAWYQQKAGQPPKLLIYWNSTRESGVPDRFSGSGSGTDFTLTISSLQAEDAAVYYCQQYHRVPLSFGGGTKVEIK = 110 µM (1 of 3 replicates; controls 7 of 9)
- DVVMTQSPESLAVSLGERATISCKSSQSVSYESRNKNSVAWYQQKAGQPPKLLIYWCSTRESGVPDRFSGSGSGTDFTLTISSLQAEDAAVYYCQQYHRHPLSFGGGTKVEIK = nd (0 of 3 replicates; controls 0 of 9)
- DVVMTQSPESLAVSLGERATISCKSSQSVLYESRNKNSVAWYQQKAGQPPKLLIYCASTRESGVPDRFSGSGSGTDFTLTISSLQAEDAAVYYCQQYHRNPLYFGGGTKVEIK = 4.9 nM (3 of 3 replicates; controls 0 of 9)
- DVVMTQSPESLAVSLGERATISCKSSQSVLYESRNRNSVAWYQQKAGQPPKLLIYWAWTRESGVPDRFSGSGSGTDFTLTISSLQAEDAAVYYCQQYHRTPLSFGGGTKVEIK = nd (0 of 3 replicates; controls 0 of 9)
- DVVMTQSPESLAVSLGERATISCKSSQDVLYESRNKNCVAWYQQKAGQPPKLLIYWASTRESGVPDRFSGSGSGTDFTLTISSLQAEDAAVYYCQQYHRPPLSFGGGTKVEIK = 72 µM (1 of 3 replicates; controls 3 of 9)
- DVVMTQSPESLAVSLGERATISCKSSQSVLYESRNKNSVAWYQQKAGQPPKLLIYWASTRESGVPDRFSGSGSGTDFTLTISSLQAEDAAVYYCQQYHRWPLSFGGGTKVEIK = nd (0 of 3 replicates; controls 6 of 9)
- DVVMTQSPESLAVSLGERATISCKSSQSVLCDSRNKNSVAWYQQKAGQPPKLLIYWASTRESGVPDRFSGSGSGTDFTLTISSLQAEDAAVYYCQQYHREPLSFGGGTKVEIK = 140 nM (3 of 3 replicates; controls 1 of 9)
- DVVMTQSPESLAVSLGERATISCKSSQSVLYESRGKNSVAWYQQKAGQPPKLLIYWASTRESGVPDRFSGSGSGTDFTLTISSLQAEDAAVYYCQQYHRQPLSFGGGTKVEIK = 15 nM (3 of 3 replicates; controls 1 of 9)
- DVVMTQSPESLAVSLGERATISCKSSQSVLYESRNKNSVAWYQQKAGQPPKLLIYWASQRFSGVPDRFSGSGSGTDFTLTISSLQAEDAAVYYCQQYHRPPLSFGGGTKVEIK = 34 nM (3 of 3 replicates; controls 3 of 9)
- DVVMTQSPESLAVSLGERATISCKSSQSVLYESRNKNSVAWYQQKAGQPPKLLIYWASYREHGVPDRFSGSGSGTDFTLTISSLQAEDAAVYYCQQYHRTPLSFGGGTKVEIK = nd (0 of 3 replicates; controls 0 of 9)
- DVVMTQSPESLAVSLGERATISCKSSQSVLYESDNKNSVAWYQQKAGQPPKLLIYWASTRESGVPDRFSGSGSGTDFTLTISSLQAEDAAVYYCQQYHREPLSFGGGTKVEIK = 2.5 nM (3 of 3 replicates; controls 2 of 9)
- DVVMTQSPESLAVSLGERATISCKSGQSVLYEERNKNSVAWYQQKAGQPPKLLIYWASTRESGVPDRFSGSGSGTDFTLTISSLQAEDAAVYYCQQYHRVPLSFGGGTKVEIK = 2.9 nM (3 of 3 replicates; controls 0 of 9)
- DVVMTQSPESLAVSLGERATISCKSQQSVLYESRNKNSVNWYQQKAGQPPKLLIYWASTRESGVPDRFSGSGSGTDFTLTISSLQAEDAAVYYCQQYHRGPLSFGGGTKVEIK = 50 µM (1 of 3 replicates; controls 3 of 9)
- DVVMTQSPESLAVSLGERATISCKSSQSVLYESRNKNIVAWYQQKAGQPPKLLIYWASTREEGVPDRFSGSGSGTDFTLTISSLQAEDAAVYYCQQYHRPPLSFGGGTKVEIK = nd (0 of 3 replicates; controls 0 of 9)
- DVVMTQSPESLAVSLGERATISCKSSQSVLYESRNKNSVAWYQQKAGQPPKLLIYWASTREMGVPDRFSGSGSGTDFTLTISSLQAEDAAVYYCQGYHRRPLSFGGGTKVEIK = nd (0 of 3 replicates; controls 0 of 9)
- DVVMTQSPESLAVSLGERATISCKSSQSILYESRNKNSVAWYQQKAGQPPKLLIYWASTRESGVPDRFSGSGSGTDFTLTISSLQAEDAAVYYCQQQHRNPLSFGGGTKVEIK = 9.4 µM (1 of 3 replicates; controls 5 of 9)
- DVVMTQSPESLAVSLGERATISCKSSQSVLYESRNKNSVAWYQQKAGQPPKLLIYWASTRISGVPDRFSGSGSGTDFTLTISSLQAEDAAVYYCGQYHRMPLSFGGGTKVEIK = 63 nM (3 of 3 replicates; controls 3 of 9)

4 of these entries, quoted again:

VL	apparent Kd	replicates with signal	signal with controls
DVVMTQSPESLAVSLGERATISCKSSQDVLYESRNKNCVAWYQQKAGQPPKLLIYWASTRESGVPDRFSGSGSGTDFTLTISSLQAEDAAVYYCQQYHRPPLSFGGGTKVEIK	72 µM	1 of 3	3 of 9
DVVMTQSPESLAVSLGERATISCKDSQSVLYESRNKNSVAWYQQKAGQPPKLLIYQASTRESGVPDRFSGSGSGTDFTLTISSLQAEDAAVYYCQQYHRRPLSFGGGTKVEIK	54 µM	1 of 3	3 of 9
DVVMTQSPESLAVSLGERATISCKSSQSVLYESRNKNSVAWYQQKAGQPPKLLIYCASTRESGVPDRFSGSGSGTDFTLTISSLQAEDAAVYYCQQYHRNPLYFGGGTKVEIK	4.9 nM	3 of 3	0 of 9
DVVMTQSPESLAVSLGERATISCKSQQSVLYESRNKNSVNWYQQKAGQPPKLLIYWASTRESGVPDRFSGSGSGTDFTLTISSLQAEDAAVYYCQQYHRGPLSFGGGTKVEIK	50 µM	1 of 3	3 of 9